For this assay, the target named is Epidermal growth factor receptor (Homo sapiens, UniProt P00533). Briefly: Inhibition of EGFR after 30 mins by chemiluminescence ELISA. (In general: An ELISA detects its analyte on a solid surface through an enzyme-linked reagent.)

Sequences of proteins named here, by UniProt entry; tags and fusion partners are left off.
UniProt P00533, whole entry: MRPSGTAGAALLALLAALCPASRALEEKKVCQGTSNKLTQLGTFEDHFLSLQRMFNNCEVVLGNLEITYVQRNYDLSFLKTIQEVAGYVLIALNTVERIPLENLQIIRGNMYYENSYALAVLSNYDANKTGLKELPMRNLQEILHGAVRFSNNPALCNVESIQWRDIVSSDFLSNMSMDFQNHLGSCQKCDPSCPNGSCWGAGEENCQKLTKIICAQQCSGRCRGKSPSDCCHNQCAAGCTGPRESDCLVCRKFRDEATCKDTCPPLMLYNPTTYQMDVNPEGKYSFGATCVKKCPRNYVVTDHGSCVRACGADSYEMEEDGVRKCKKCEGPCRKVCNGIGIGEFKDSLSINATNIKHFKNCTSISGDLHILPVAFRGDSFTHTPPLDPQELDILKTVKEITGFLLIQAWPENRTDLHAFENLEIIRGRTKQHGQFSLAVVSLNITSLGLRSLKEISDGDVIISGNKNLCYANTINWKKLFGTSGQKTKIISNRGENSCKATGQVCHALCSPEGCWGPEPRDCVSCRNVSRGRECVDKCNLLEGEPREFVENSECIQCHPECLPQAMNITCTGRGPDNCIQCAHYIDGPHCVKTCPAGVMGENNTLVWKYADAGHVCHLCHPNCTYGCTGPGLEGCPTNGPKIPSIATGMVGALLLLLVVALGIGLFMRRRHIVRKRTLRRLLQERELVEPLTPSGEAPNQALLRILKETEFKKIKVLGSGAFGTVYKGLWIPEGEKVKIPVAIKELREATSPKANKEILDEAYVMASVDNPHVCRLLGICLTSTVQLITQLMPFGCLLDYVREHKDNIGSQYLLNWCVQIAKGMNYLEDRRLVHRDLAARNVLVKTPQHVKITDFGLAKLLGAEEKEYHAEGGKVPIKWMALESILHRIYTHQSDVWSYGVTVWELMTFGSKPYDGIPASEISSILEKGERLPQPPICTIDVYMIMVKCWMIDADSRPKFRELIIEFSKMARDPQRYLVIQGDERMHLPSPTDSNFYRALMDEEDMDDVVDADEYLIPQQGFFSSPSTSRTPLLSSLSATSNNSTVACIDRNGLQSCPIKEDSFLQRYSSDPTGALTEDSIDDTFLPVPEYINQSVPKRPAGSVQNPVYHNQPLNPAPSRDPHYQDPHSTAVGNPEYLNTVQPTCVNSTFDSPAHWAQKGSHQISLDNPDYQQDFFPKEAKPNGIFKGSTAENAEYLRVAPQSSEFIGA

Structures are written as SMILES.

For the molecule `NC1CCc2c(c3cc(OCCc4ccc(O)cc4)ccc3n2CCCCCc2ccccn2)C1` (stereo unspecified), the IC50 is 2280 nM.

For orientation: IC50 means the midpoint of a concentration-inhibition curve. The low end stands for greater potency in that assay, the high end for weaker potency in that assay.

(Values after ChEMBL document CHEMBL1157833, “Serotonin derivatives as a new class of non-ATP-competitive receptor tyrosine kinase inhibitors” (Bioorg Med Chem, 2010).)
